Values of other authors in paper PMC11623267, “Inhibitors of malaria parasite cyclic nucleotide phosphodiesterases block asexual blood-stage development and mosquito transmission” (Science Advances, 2024).

Test system: PDE11
Conditions: cited from earlier work

SMILES: CN1CC(=O)N2[C@H](c3ccc4c(c3)OCO4)c3[nH]c4ccccc4c3C[C@@H]2C1=O [tadalafil]
- Selectivity (PDE5 over PDE11): ~ 5 fold
